Sequences of proteins named here, by UniProt entry; tags and fusion partners are left off.
UniProt Q9Y3Z3, whole entry T592E: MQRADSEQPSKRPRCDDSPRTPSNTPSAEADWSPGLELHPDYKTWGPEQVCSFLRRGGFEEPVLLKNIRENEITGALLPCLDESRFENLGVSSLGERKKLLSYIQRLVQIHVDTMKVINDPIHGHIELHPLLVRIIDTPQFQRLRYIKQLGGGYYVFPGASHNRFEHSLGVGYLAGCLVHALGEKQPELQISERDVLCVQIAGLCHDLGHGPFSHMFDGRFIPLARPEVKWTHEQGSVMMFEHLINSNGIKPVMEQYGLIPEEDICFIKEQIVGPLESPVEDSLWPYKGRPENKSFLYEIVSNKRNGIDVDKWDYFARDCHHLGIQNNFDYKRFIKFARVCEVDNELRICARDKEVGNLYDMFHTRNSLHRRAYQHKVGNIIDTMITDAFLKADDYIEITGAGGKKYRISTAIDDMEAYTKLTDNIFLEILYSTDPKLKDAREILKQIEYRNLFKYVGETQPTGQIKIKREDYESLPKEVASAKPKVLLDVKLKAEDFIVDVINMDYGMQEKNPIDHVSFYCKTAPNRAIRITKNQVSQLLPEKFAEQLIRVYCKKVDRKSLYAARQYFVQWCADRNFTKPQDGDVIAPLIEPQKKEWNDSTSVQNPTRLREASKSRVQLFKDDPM

In article PMC9303311:

Target: SAMHD1 (UniProt Q9Y3Z3)
Experiment: glutaraldehyde crosslinking time course with ssDNA
Details: reference: unphosphorylated wild type; sites T592

other: tetramer dissociation half-life: weaker; reference 17
Substance: SAMHD1 (from UniProt Q9Y3Z3) T592E
